This note sets out measurements from patent publication US8524696B2, “Water-soluble compositions of bioactive lipophilic compounds” (priority 1999, dated 2013).

This experiment has as its system spontaneously hypertensive rats (SHR). Nature of the experiment: Ischemia/reperfusion, middle cerebral artery occlusion model (MCAO), TTC staining. It is filed as in vivo, rat. To be noted: CoQ10 6 mg/kg intravenously after 60 min occlusion.

As for `COC1=C(OC)C(=O)C(C/C=C(\C)CC/C=C(\C)CC/C=C(\C)CC/C=C(\C)CC/C=C(\C)CC/C=C(\C)CC/C=C(\C)CC/C=C(\C)CC/C=C(\C)CCC=C(C)C)=C(C)C1=O` [CoQ10, Coenzyme Q10], under “1 day after reperfusion”, the “TTC formazan, Left brain hemisphere” value is listed as 1206.0 +/− 50.2 OD/g of dry brain tissue and the “TTC formazan, Right brain hemisphere” value is 1200.0 +/− 19.2 OD/g of dry brain tissue. Also, where the note is “2 days after reperfusion”, the “TTC formazan, Left brain hemisphere” value is recorded as 1084.9 +/− 22.2 OD/g of dry brain tissue and the “TTC formazan, Right brain hemisphere” value is given as 1060.9 +/− 21.2 OD/g of dry brain tissue.
